# Patent US4681091A, “Combination modality cancer therapy” (priority 1985, dated 1987)
# Read-outs that look alike come from different tables or passages of the source.
# Test system: bacterial cells (salmonella typhimurium TM677)
# Conditions: 200 µM
substance,measurement,setting,value
dichlorobis (ethylenediamine) rhodium (III) [Compound 3],N/No (toxicity),"salmonella typhimurium tm677, 20 min",1.12 × 10°
same,N/No (toxicity),"salmonella typhimurium tm677, 40 min",1.23 × 10°
